From patent US20220324865A1 (Bayer Aktiengesellschaft, priority 2018, published 2022)

By UniProt entry, the sequences of proteins in these tests, tags left out.
UniProt P43115, whole entry: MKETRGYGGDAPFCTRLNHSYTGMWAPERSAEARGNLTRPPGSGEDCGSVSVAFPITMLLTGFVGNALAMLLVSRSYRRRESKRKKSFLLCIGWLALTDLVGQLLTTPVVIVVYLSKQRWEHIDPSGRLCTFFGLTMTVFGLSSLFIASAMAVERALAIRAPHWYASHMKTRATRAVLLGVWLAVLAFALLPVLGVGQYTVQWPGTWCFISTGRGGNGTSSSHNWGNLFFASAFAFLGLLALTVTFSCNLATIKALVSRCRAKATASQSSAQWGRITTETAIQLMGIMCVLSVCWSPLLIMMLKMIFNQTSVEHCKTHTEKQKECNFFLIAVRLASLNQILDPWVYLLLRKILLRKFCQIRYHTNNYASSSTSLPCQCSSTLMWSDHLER

Molecular target: human EP3 receptor (Homo sapiens, UniProt P43115)
Assay: Cellular in vitro assay for determining EP3 receptor activity (human EP3 cell line, sulprostone-stimulated calcium luminescence)
Settings: read-out: EP3 CHO mtCLY ANTAG IC50; CHO cells expressing human EP3 and mitochondrial Clytin; antagonist mode, sulprostone at EC50
Experimental: B-1. Cellular In Vitro Assay for Determining EP3 Receptor Activity
The identification of antagonists of the EP3 receptor from humans and rats as well as the quantification of the activity of the compounds of the invention was carried out using recombinant cell lines. These cell lines originally derive from a hamsters ovary epithelial cell (Chinese Hamster Ovary, CHO K1, ATCC: American Type Culture Collection, Manassas, Va. 20108, USA). The test cell lines constitutively express the human or rat EP3 receptors. The naturally Gαi-coupled human and rat EP3 receptors were stably co-transfected with Gα16 into cells that are also stably transfected with a mitochondrial form of the calcium-sensitive photoproteins Clytin (human EP3) or Photina (rat EP3), which, after reconstitution with the cofactor coelenterazine, emit light when there are increases in free calcium concentrations (Nature 1992, 358, 325-327; Gene 1995, 153 (2), 273-274). The resulting EP3 receptor cells react to stimulation of the recombinantly expressed EP3 receptors by the agonist sulprostone with intracellular release of calcium ions, which can be quantified by the resulting photoprotein luminescence. Antagonists inhibit the receptor signaling, leading to reduced calcium release and luminescence. The bioluminescence of the cell lines is detected using a suitable luminometer (Trends Pharmacol. Sci. 1996, 17, 235-237).
Human and Rat EP3 Cell Lines:
On the day before the assay, the cells are plated out in culture medium (OptiMEM, 1% FCS, 2 mM glutamine, 10 mM HEPES, 5 μg/ml coelenterazine) in 384-well microtiter plates and kept in a cell incubator (96% humidity, 5% v/v CO2, 37° C.). On the day of the assay, test compounds in various concentrations are placed for 10 minutes in the wells of the microtiter plate before the agonist sulprostone at EC50 concentration is added. The resulting light signal is measured immediately in a luminometer. All concentrations are measured in quadruples.

In the case of Cc1cc(-c2cn3nc(C(=O)N[C@@H](c4ccc(F)cc4)[C@H](O)C(F)(F)F)c(C(F)(F)F)c3c(=O)[nH]2)ccc1Cl, the IC50 is reported as 0.73 nM.
CC(C)(O)C(NC(=O)c1nn2cc(-c3ccc(Cl)c(F)c3)[nH]c(=O)c2c1C1CC1)c1ccc(F)c(F)c1 (single isomer, unassigned) [6-99] was tested, and the IC50 was 1.12 nM.
For C[C@H](NC(=O)c1nn2cc(-c3ccc(Cl)c(F)c3)[nH]c(=O)c2c1C(F)(F)C(F)(F)F)C1CC1, the IC50 was 5.4 nM.
Compound Cc1cc(-c2cn3nc(C(=O)N[C@@H](c4ccc(F)cc4)C(F)(F)CO)c(C4CC4)c3c(=O)[nH]2)c(F)cc1Cl has an IC50 of 3.1 nM.
In the case of O=C(NCC(O)C(F)(F)F)c1nn2cc(-c3ccc(Cl)c(F)c3)[nH]c(=O)c2c1C1CC1 (single isomer, unassigned) [6-89], the IC50 is reported as 1.9 nM.
Cc1ccc(-c2cn3nc(C(=O)NC(CN4CCOCC4)c4ccc(F)cc4)c(C4CC4)c3c(=O)[nH]2)cc1C (single isomer, unassigned) [6-442] showed an IC50 of 5.25 nM.
O=C(NCC(O)C(F)(F)F)c1nn2cc(-c3ccc4c(c3)OCCO4)[nH]c(=O)c2c1C(F)(F)F (centres unmarked) was tested, and the IC50 was 5.5 nM.
Work on Cc1ccc(-c2cn3nc(C(=O)NC(CO)c4ccc(F)cc4)c(C4CC4)c3c(=O)[nH]2)cc1F (single isomer, unassigned) [6-373] yielded an IC50 of 2.1 nM.
In the case of Cc1ccc(-c2cn3nc(C(=O)NC4CCN(C5CC5)C4)c(C4CC4)c3c(=O)[nH]2)cc1C (single isomer, unassigned) [6-449], the IC50 is reported as 2.3 nM.
COCC(NC(=O)c1nn2cc(-c3ccc(Cl)c(C)c3)[nH]c(=O)c2c1C(F)(F)F)c1ccccc1 (single isomer, unassigned) [6-209] showed an IC50 of 1.13 nM.
O=C(NC(CN1CCOCC1)c1ccc(F)cc1)c1nn2cc(-c3ccc4ccccc4c3)[nH]c(=O)c2c1C(F)(F)F (single isomer, unassigned) [6-503] was tested, and the IC50 was 4.7 nM.
With Cc1ccc(-c2cn3nc(C(=O)NC4(c5ccc(F)cc5)CCN(CC(F)(F)F)CC4)cc3c(=O)[nH]2)cc1C the IC50 was 6.9 nM.
With CC(C)(O)C(NC(=O)c1nn2cc(-c3ccc4ccccc4c3)[nH]c(=O)c2c1C(F)(F)F)c1ccc(C(F)(F)F)cc1 (centres unmarked) the IC50 was 2.75 nM.
CC(C)(O)[C@@H](NC(=O)c1nn2cc(-c3ccc(Cl)c(Cl)c3)[nH]c(=O)c2c1C(F)(F)F)c1ccc(F)cc1 showed an IC50 of 3.55 nM.
Work on Cc1cc(-c2cn3nc(C(=O)NCC(O)C(F)(F)F)c(C(F)(F)F)c3c(=O)[nH]2)ccc1Cl (single isomer, unassigned) [6-204] yielded an IC50 of 8.15 nM.
For Cc1cc(-c2cn3nc(C(=O)N[C@@H](c4ccc(F)cc4)C(C)(C)O)cc3c(=O)[nH]2)ccc1Cl, the IC50 was 1.21 nM.
Work on COC[C@@H](NC(=O)c1nn2cc(-c3ccc(Cl)c(C)c3)[nH]c(=O)c2c1C1CC1)c1ccccc1 yielded an IC50 of 0.93 nM.
Cc1cc(-c2cn3nc(C(=O)NC(CO)C(F)(F)F)c(C4CC4)c3c(=O)[nH]2)ccc1Cl (single isomer, unassigned) [6-307] gave an IC50 of 1.65 nM.
Work on Cc1ccc(-c2cn3nc(C(=O)NCC(O)C(F)F)c(C4CC4)c3c(=O)[nH]2)cc1C (single isomer, unassigned) [6-428] yielded an IC50 of 0.81 nM.
Work on COC[C@@H](NC(=O)c1nn2cc(-c3ccc(C)c(Cl)c3)[nH]c(=O)c2c1C1CC1)c1ccccc1 yielded an IC50 of 1.07 nM.
In the case of CC(C)c1c(C(=O)N[C@@H](c2ccc(F)cc2)C(C)(C)O)nn2cc(-c3ccc(Cl)c(F)c3)[nH]c(=O)c12, the IC50 is reported as 1.63 nM.
In the case of Cc1ccc(-c2cn3nc(C(=O)NCC(N)C(F)(F)F)c(C(F)(F)F)c3c(=O)[nH]2)cc1Cl (single isomer, unassigned) [6-166], the IC50 is reported as 8.35 nM.
Cc1cc(-c2cn3nc(C(=O)NC4(c5ccc(F)cc5)CN(C)C4)c(C4CC4)c3c(=O)[nH]2)ccc1C(F)(F)F was tested, and the IC50 was 7.75 nM.
Compound CC(CO)NC(=O)c1nn2cc(-c3ccc4c(c3)OCCO4)[nH]c(=O)c2c1C1CC1 (single isomer, unassigned) [6-469] has an IC50 of 3.35 nM.
Cc1ccc(-c2cn3nc(C(=O)NCC(O)C(F)F)c(C4CC4)c3c(=O)[nH]2)cc1C (single isomer, unassigned) [6-429] showed an IC50 of 1.09 nM.
O=C(NCc1ccccc1)c1cc2c(=O)[nH]c(-c3ccc4c(c3)OCCO4)cn2n1 was tested, and the IC50 was 2.7 nM.
In the case of Cc1cc(-c2cn3nc(C(=O)NCC(C)(N)C(F)(F)F)c(C(F)(F)F)c3c(=O)[nH]2)ccc1Cl (racemic), the IC50 is reported as 8.67 nM.
For Cc1ccc(-c2cn3nc(C(=O)NC4(C(F)(F)F)COC4)c(C4CC4)c3c(=O)[nH]2)cc1F, the IC50 was 1.6 nM.
Work on O=C(N[C@H](CN1CC(F)C1)c1ccccc1F)c1nn2cc(-c3ccc4ccccc4c3)[nH]c(=O)c2c1C(F)(F)F yielded an IC50 of 4.25 nM.
Compound Cc1ccc(-c2cn3nc(C(=O)NC4CCN(C5CC5)C4)c(C4CC4)c3c(=O)[nH]2)cc1C (single isomer, unassigned) [6-447] has an IC50 of 4.55 nM.
In the case of O=C(NC(CO)C(F)(F)F)c1nn2cc(-c3ccc(Cl)c(Cl)c3)[nH]c(=O)c2c1C1CC1 (single isomer, unassigned) [6-418], the IC50 is reported as 2.18 nM.
For COc1ccc([C@@H](C)NC(=O)c2nn3c(C)c(-c4ccc5ccccc5c4)[nH]c(=O)c3c2C)cn1, the IC50 was 5.75 nM.
CC(C)(O)C(NC(=O)c1nn2cc(-c3ccc(Cl)c(F)c3)[nH]c(=O)c2c1C1CC1)c1ccc(F)c(F)c1 (single isomer, unassigned) [6-100] gave an IC50 of 2.2 nM.
Cc1ccc(-c2cn3nc(C(=O)NC(c4ccc(F)cc4)C4(O)CC4)c(C(F)(F)F)c3c(=O)[nH]2)cc1F (racemic) was tested, and the IC50 was 2.08 nM.
O=C(N[C@H](CN1CC(F)C1)c1cccc(F)c1)c1nn2cc(-c3ccc4ccccc4c3)[nH]c(=O)c2c1C(F)(F)F gave an IC50 of 1.11 nM.
Cc1ccc(-c2[nH]c(=O)c3c(C(F)(F)F)c(C(=O)N[C@@H](c4ccc(F)cc4)C(C)(C)O)nn3c2C)cc1C gave an IC50 of 9.55 nM.
For Cc1cc(-c2cn3nc(C(=O)N[C@H](c4ccc(F)cc4)C(C)(C)O)c(C4CC4)c3c(=O)[nH]2)ccc1Cl, the IC50 was 4.45 nM.
Compound O=C(N[C@H](CN1CC(F)C1)c1ccc(F)cc1)c1nn2cc(-c3ccc4ccccc4c3)[nH]c(=O)c2c1C(F)(F)F has an IC50 of 1.08 nM.
Work on Cc1ccc(-c2cn3nc(C(=O)NCC(O)C(F)F)c(C(F)(F)F)c3c(=O)[nH]2)cc1Cl (single isomer, unassigned) [6-183] yielded an IC50 of 3 nM.
In the case of Cc1ccc(-c2cn3nc(C(=O)NC4(C#N)CCN(C(=O)OC(C)(C)C)C4)c(C(F)(F)F)c3c(=O)[nH]2)cc1F (centres unmarked), the IC50 is reported as 3.93 nM.
With Cc1ccc(-c2cn3nc(C(=O)NC(c4ccc(F)cc4)C4(O)CC4)cc3c(=O)[nH]2)cc1F (centres unmarked) the IC50 was 7.5 nM.
Work on COC[C@H](C)NC(=O)c1nn2cc(-c3ccc(Cl)c(C)c3)[nH]c(=O)c2c1C1CC1 yielded an IC50 of 5.6 nM.
Cc1cc(-c2cn3nc(C(=O)N[C@H](CN4CCOCC4)c4ccc(F)cc4)c(C(F)(F)F)c3c(=O)[nH]2)ccc1Cl gave an IC50 of 2.05 nM.
COC[C@H](NC(=O)c1nn2cc(-c3ccc(C)c(Cl)c3)[nH]c(=O)c2c1C(F)(F)F)c1ccccc1 gave an IC50 of 2.45 nM.
For Cc1ccc(-c2cn3nc(C(=O)NC(c4ccc(F)cc4)C4(O)CC4)c(C(F)(F)F)c3c(=O)[nH]2)cc1Cl (single isomer, unassigned) [6-174], the IC50 was 1.02 nM.
For Cc1ccc(-c2cn3nc(C(=O)NC(CN4CCOCC4)c4ccc(F)cc4)c(C4CC4)c3c(=O)[nH]2)cc1C (single isomer, unassigned) [6-443], the IC50 was 2.45 nM.
In the case of Cc1ccc(-c2cn3nc(C(=O)NC(CO)c4ccc(F)cc4)cc3c(=O)[nH]2)cc1C(F)(F)F (centres unmarked), the IC50 is reported as 9.1 nM.
Cc1cc(-c2cn3nc(C(=O)NC(C)CN4CCOCC4)c(C4CC4)c3c(=O)[nH]2)ccc1Cl (single isomer, unassigned) [6-330] showed an IC50 of 9.3 nM.
Work on CCCc1c(C(=O)N[C@@H](c2ccc(F)cc2)C(C)(C)O)nn2cc(-c3ccc(C)c(C)c3)[nH]c(=O)c12 yielded an IC50 of 0.69 nM.
COCC(NC(=O)c1nn2cc(-c3ccc(Cl)c(C)c3)[nH]c(=O)c2c1C(F)(F)F)c1ccccc1 (single isomer, unassigned) [6-208] showed an IC50 of 5.1 nM.
For O=C(NC(CO)C(F)(F)F)c1nn2cc(-c3ccc(Cl)c(F)c3)[nH]c(=O)c2c1C1CC1 (single isomer, unassigned) [6-93], the IC50 was 12 nM.
With Cc1ccc(-c2cn3nc(C(=O)NCC(N)C(F)(F)F)c(C4CC4)c3c(=O)[nH]2)cc1C (centres unmarked) the IC50 was 0.49 nM.
Cc1ccc(-c2cn3nc(C(=O)N[C@@H](c4ccc(F)cc4)C(C)(C)O)c(C(F)(F)C(F)(F)F)c3c(=O)[nH]2)cc1C showed an IC50 of 0.43 nM.
Compound Cc1ccc(-c2cn3nc(C(=O)NC(C)(C)CO)c(C4CC4)c3c(=O)[nH]2)cc1Cl has an IC50 of 4.5 nM.
Cc1ccc(-c2cn3nc(C(=O)NCCN(C)C4CC4)c(C(F)(F)F)c3c(=O)[nH]2)cc1Cl was tested, and the IC50 was 4.7 nM.
Cc1cc(-c2cn3nc(C(=O)N[C@H](CN4CC[C@@H](F)C4)c4ccc(F)cc4)c(C4CC4)c3c(=O)[nH]2)ccc1Cl showed an IC50 of 0.99 nM.
Work on Cc1cc(-c2cn3nc(C(=O)N[C@@H](c4ccc(F)cc4)C(C)(C)O)c(C4CC4)c3c(=O)[nH]2)ccc1F yielded an IC50 of 1.4 nM.
COCc1c(C(=O)N[C@@H](c2ccc(F)cc2)C(C)(C)O)nn2cc(-c3ccc4c(c3)OCCO4)[nH]c(=O)c12 gave an IC50 of 3.1 nM.
Cc1ccc(-c2cn3nc(C(=O)NC(CO)C4CC4)c(C4CC4)c3c(=O)[nH]2)cc1Cl (single isomer, unassigned) [6-267] showed an IC50 of 0.32 nM.
